Results reported in patent US20240124450A1, “Novel SIK Inhibitors” (Pfizer Inc., priority 2022, published 2024).

Chains of the proteins cited; added tags and fusions are not shown.
UniProt P57059, whole entry: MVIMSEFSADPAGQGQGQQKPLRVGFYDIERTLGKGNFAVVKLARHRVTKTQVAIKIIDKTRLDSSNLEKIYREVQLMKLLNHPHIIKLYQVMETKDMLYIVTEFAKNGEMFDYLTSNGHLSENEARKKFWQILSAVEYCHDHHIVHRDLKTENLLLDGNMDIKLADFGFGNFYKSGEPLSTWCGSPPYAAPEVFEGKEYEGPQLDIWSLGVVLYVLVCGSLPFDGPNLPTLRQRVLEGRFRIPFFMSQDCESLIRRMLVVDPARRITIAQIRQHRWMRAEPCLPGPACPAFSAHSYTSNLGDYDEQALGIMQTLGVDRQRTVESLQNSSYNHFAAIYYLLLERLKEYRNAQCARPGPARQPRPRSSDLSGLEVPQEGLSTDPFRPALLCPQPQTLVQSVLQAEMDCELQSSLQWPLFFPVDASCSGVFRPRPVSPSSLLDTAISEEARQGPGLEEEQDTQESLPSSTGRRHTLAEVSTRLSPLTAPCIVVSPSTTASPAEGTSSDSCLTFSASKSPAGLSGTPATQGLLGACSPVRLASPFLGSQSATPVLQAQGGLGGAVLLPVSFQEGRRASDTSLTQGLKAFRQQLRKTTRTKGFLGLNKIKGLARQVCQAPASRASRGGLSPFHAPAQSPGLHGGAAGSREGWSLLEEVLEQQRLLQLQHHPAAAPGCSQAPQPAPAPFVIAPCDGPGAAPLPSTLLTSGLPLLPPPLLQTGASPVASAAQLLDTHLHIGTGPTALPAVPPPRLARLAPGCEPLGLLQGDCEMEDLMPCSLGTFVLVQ
UniProt Q9Y2K2, whole entry: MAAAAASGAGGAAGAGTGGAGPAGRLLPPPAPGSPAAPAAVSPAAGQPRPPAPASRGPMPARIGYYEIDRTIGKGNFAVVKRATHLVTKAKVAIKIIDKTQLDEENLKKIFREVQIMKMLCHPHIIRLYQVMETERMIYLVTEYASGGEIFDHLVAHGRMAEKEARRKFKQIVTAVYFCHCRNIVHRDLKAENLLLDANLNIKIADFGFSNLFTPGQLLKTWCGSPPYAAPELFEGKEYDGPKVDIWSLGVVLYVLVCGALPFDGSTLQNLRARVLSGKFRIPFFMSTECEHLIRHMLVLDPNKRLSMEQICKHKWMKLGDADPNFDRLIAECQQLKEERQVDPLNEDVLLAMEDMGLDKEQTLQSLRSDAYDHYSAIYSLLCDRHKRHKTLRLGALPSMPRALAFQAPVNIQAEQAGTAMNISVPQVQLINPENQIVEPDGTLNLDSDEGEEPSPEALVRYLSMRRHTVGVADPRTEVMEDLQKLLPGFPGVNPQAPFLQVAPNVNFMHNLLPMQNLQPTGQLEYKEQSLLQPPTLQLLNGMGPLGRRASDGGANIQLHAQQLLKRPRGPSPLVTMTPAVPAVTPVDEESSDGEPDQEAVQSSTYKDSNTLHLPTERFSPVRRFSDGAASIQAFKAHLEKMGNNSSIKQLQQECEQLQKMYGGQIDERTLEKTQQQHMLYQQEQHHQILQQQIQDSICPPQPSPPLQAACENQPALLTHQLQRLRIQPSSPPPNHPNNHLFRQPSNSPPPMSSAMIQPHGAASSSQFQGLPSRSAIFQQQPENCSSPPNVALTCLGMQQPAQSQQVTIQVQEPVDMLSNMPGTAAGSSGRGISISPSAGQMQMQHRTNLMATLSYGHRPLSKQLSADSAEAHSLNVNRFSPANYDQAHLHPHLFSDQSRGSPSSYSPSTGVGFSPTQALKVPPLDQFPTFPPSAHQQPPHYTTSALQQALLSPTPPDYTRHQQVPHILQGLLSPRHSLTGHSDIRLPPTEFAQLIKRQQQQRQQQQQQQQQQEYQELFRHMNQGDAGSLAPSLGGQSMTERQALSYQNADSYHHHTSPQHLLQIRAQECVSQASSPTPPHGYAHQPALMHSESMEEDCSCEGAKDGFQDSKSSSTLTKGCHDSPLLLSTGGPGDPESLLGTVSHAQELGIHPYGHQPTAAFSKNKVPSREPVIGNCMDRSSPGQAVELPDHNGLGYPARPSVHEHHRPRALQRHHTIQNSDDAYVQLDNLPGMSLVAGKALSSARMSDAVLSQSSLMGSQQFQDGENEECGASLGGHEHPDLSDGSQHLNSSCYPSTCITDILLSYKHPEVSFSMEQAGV
UniProt Q9H0K1, whole entry: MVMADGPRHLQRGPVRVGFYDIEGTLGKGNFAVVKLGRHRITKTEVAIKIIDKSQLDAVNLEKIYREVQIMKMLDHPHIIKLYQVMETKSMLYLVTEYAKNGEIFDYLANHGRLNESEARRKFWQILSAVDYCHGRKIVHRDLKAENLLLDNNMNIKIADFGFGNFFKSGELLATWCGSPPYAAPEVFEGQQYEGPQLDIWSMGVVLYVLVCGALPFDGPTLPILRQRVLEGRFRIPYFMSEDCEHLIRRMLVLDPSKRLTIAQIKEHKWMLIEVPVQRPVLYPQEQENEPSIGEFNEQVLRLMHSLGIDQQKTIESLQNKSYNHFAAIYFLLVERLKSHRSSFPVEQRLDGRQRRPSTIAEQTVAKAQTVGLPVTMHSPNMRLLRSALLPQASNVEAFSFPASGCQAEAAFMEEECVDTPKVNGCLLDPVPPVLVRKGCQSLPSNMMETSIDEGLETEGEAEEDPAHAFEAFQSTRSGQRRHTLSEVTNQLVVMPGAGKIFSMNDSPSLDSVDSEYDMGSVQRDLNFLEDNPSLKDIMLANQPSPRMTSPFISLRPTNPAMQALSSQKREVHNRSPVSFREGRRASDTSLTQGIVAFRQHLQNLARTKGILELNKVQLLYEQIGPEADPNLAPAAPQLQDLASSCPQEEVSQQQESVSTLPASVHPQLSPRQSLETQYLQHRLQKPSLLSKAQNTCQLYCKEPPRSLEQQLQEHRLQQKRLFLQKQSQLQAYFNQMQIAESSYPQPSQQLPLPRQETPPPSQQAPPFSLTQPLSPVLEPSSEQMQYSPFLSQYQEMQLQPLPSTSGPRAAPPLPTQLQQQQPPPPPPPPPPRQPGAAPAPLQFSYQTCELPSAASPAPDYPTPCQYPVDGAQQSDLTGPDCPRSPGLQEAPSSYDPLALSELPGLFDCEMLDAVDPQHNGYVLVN

Key:
[1] = system: IL10 release from human monocyte derived macrophages stimulated with LPS; test: SIK macrophage cytokine assay, increase of IL10 release; assay type: cell-based; details: read-out: IL10 EC50, 1 ng/mL LPS, 4 hours, HTRF
[2] = system: TNFα release from human monocyte derived macrophages stimulated with LPS; test: SIK macrophage cytokine assay, inhibition of TNFα release; assay type: cell-based; details: read-out: TNFa IC50, 1 ng/mL LPS, 4 hours, HTRF
SIK1 = SIK1 (Homo sapiens (Human), UniProt P57059); test: Pan SIK MS IC50 enzyme assay (SIK1); details: read-out: SIK1 IC50 IC50; 1 mM ATP, substrate peptide AQT0868, LCMS/MS detection
SIK3 = SIK3 (Homo sapiens (Human), UniProt Q9Y2K2); test: Pan SIK MS IC50 enzyme assay (SIK3); assay type: biochemical; details: read-out: SIK3 IC50 IC50; 1 mM ATP, substrate peptide AQT0508, LCMS/MS detection
SIK2 = SIK2 (Homo sapiens (Human), UniProt Q9H0K1); test: Pan SIK MS IC50 enzyme assay (SIK2); assay type: biochemical; details: read-out: SIK2 IC50 IC50; 1 mM ATP, substrate peptide AQT0252, LCMS/MS detection

COc1cc(-c2cnc3cccc(OC)n23)cc(OC[C@]2(N)CCC[C@H]2CC2CC2)c1C#N (single isomer, unassigned)
EC50 [1]: 966 nM
IC50 [2]: 535 nM

CC[C@H]1CCC[C@]1(N)COc1cc(-c2cnc3cccc(C#N)n23)cc(SC)c1C#N (single isomer, unassigned)
EC50 [1]: 2 nM
IC50 [2]: 0.5 nM

CSc1cc(-c2cnc3ccccn23)cc(OCC2(N)CCSC2)c1C#N (single isomer, unassigned) [23B]
EC50 [1]: 89 nM
IC50 [2]: 19.8 nM

CC[C@H]1OCC[C@]1(N)COc1cc(-c2cnc3cccc(OC)n23)cc(SC)c1C#N (single isomer, unassigned)
EC50 [1]: 715 nM
IC50 [2]: 346 nM

CSc1cc(-c2cnc3cccc(C#N)n23)cc(OCC2(N)CCCC(C)(C)C2)c1C#N (single isomer, unassigned) [15B]
EC50 [1]: 18 nM
IC50 [2]: 4.4 nM

CC[C@@H]1CC[C@@](N)(COc2cc(-c3cnc4cccc(OC)n34)cc(OC)c2C#N)C1 (single isomer, unassigned)
EC50 [1]: 328 nM
IC50 [2]: 160 nM

CSc1cc(-c2cnc3ccccn23)cc(OCC2(N)CCC(F)(F)C2)c1C#N (single isomer, unassigned) [26A]
EC50 [1]: 66 nM
IC50 [2]: 20 nM

CC[C@H]1CCC[C@@](N)(COc2cc(-c3cnc4cccc(C#N)n34)cc(SC)c2C#N)C1 (single isomer, unassigned)
EC50 [1]: 49 nM
IC50 [2]: 18.7 nM

CC[C@H]1CCC[C@](N)(COc2cc(-c3cnc4cccc(OC)n34)cc(OC)c2C#N)C1 (single isomer, unassigned)
EC50 [1]: 12 nM
IC50 [2]: 2.5 nM

COc1cc(-c2cnc3cccc(OC)n23)cc(OCC2(N)CCCC23CCCC3)c1C#N (single isomer, unassigned) [20B]
EC50 [1]: 33 nM
IC50 [2]: 13.8 nM

CSc1cc(-c2cnc3cccc(C#N)n23)cc(OCC2(N)CCSC2)c1C#N (single isomer, unassigned) [28A]
EC50 [1]: 14 nM
IC50 [2]: 22.7 nM

CSc1cc(-c2cnc3ccccn23)cc(OCC2(N)CCSC2)c1C#N (single isomer, unassigned) [23A]
EC50 [1]: 799 nM
IC50 [2]: 128 nM

CC[C@H]1CC[C@](N)(COc2cc(-c3cnc4cccc(OC)n34)cc(OC)c2C#N)C1 (single isomer, unassigned)
EC50 [1]: 118 nM
IC50 [2]: 54.6 nM

CSc1cc(-c2cnc3cccc(C#N)n23)cc(OCC2(N)CCCC(C)(C)C2)c1C#N (single isomer, unassigned) [15A]
EC50 [1]: 68 nM
IC50 [2]: 36.5 nM

COc1cc(-c2cnc3cccc(OC)n23)cc(OC[C@]2(N)CCC[C@@H]2CC2CC2)c1C#N (single isomer, unassigned)
EC50 [1]: 34 nM
IC50 [2]: 11.4 nM

COc1cc(-c2cnc3cccc(OC)n23)cc(OC[C@@]2(N)CCC[C@@H]2CC2CC2)c1C#N (single isomer, unassigned)
EC50 [1]: 598 nM
IC50 [2]: 287 nM

COc1cccc2ncc(-c3cc(OCC4(N)CCOC4)c(C#N)c(SC)c3)n12 (single isomer, unassigned) [24A]
EC50 [1]: 135 nM
IC50 [2]: 28.9 nM

COc1cccc2ncc(-c3cc(OCC4(N)CCC(F)(F)C4)c(C#N)c(SC)c3)n12 (single isomer, unassigned) [13A]
EC50 [1]: 332 nM
IC50 [2]: 171 nM

CC[C@@H]1CCC[C@@](N)(COc2cc(-c3cnc4cccc(OC)n34)cc(OC)c2C#N)C1 (single isomer, unassigned)
EC50 [1]: 221 nM
IC50 [2]: 118 nM

CC[C@@H]1OCC[C@]1(N)COc1cc(-c2cnc3cccc(OC)n23)cc(SC)c1C#N (single isomer, unassigned)
EC50 [1]: 1470 nM
IC50 [2]: 559 nM

COc1cc(-c2cnc3cccc(OC)n23)cc(OCC2(N)CCCN(CC(F)(F)F)C2)c1C#N (single isomer, unassigned)
IC50 (SIK1): 5.2 nM
EC50 [1]: 257 nM
IC50 (SIK3): 13.7 nM
IC50 [2]: 102 nM
IC50 (SIK2): 6.2 nM

COc1cccc2ncc(-c3cc(OCC4(N)CCSC4)c(C#N)c(SC)c3)n12 (single isomer, unassigned) [30B]
IC50 (SIK1): 1.2 nM
EC50 [1]: 78 nM
IC50 (SIK3): 5.2 nM
IC50 [2]: 23.7 nM
IC50 (SIK2): 2.2 nM

CSc1cc(-c2cnc3ccccn23)cc(OCC2(N)CCC(F)(F)C2)c1C#N (single isomer, unassigned) [26B]
EC50 [1]: 692 nM
IC50 [2]: 369 nM

CC[C@@H]1CC[C@](N)(COc2cc(-c3cnc4cccc(OC)n34)cc(OC)c2C#N)C1 (single isomer, unassigned)
EC50 [1]: 30 nM
IC50 [2]: 12.2 nM

COc1cccc2ncc(-c3cc(OCC4(N)CCOC4)c(C#N)c(SC)c3)n12 (single isomer, unassigned) [24B]
EC50 [1]: 609 nM
IC50 [2]: 193 nM

CSc1cc(-c2cnc3cccc(C#N)n23)cc(OCC2(N)CCSC2)c1C#N (single isomer, unassigned) [28B]
EC50 [1]: 208 nM
IC50 [2]: 32.5 nM

CC[C@H]1OCC[C@@]1(N)COc1cc(-c2cnc3cccc(OC)n23)cc(SC)c1C#N (single isomer, unassigned)
EC50 [1]: 39 nM
IC50 [2]: 6.3 nM

CC[C@@H]1CCC[C@@]1(N)COc1cc(-c2cnc3cccc(OC)n23)cc(SC)c1C#N (single isomer, unassigned)
EC50 [1]: 88 nM
IC50 [2]: 67.3 nM

COc1cc(-c2cnc3cccc(OC)n23)cc(OCC2(N)CCCC23CCCC3)c1C#N (single isomer, unassigned) [20A]
EC50 [1]: 825 nM
IC50 [2]: 865 nM

CC[C@@H]1CCC[C@@]1(N)COc1cc(-c2cnc3cccc(C#N)n23)cc(SC)c1C#N (single isomer, unassigned)
EC50 [1]: 66 nM
IC50 [2]: 22.7 nM

CC[C@@H]1CCC[C@](N)(COc2cc(-c3cnc4cccc(C#N)n34)cc(SC)c2C#N)C1 (single isomer, unassigned)
EC50 [1]: 2 nM
IC50 [2]: 0.5 nM

CC[C@@H]1CCC[C@@]1(N)COc1cc(-c2cnc3cccc(OC)n23)cc(OC)c1C#N (single isomer, unassigned)
EC50 [1]: 64 nM
IC50 [2]: 15.1 nM

COc1cccc2ncc(-c3cc(OCC4(N)CCSC4)c(C#N)c(SC)c3)n12 (single isomer, unassigned) [30A]
IC50 (SIK1): 7.8 nM
EC50 [1]: 484 nM
IC50 (SIK3): 35.2 nM
IC50 [2]: 122 nM
IC50 (SIK2): 9.6 nM

COc1cc(-c2cnc3cccc(OC)n23)cc(OC[C@@]2(N)CCC[C@H]2CC2CC2)c1C#N (single isomer, unassigned)
EC50 [1]: 21 nM
IC50 [2]: 4.9 nM

CC[C@H]1CCC[C@@]1(N)COc1cc(-c2cnc3cccc(OC)n23)cc(SC)c1C#N (single isomer, unassigned)
EC50 [1]: 9 nM
IC50 [2]: 1.7 nM

COc1cccc2ncc(-c3cc(OCC4(N)CCC(F)(F)C4)c(C#N)c(SC)c3)n12 (single isomer, unassigned) [13B]
EC50 [1]: 54 nM
IC50 [2]: 24.4 nM

CC[C@@H]1OCC[C@@]1(N)COc1cc(-c2cnc3cccc(OC)n23)cc(SC)c1C#N (single isomer, unassigned)
EC50 [1]: 19 nM
IC50 [2]: 3.6 nM

CC[C@H]1CC[C@@](N)(COc2cc(-c3cnc4cccc(OC)n34)cc(OC)c2C#N)C1 (single isomer, unassigned)
EC50 [1]: 387 nM
IC50 [2]: 225 nM

CC[C@H]1CCC[C@@]1(N)COc1cc(-c2cnc3cccc(OC)n23)cc(OC)c1C#N (single isomer, unassigned)
EC50 [1]: 1210 nM
IC50 [2]: 707 nM
